# Measurements as given in PubChem BioAssay AID1665 (Sanford-Burnham Center for Chemical Genomics, 2009).
# Only a part is listed here, and it is no random draw. The source made the active and inactive calls.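 Rule for the calls: active = nuclear translocation activity above 50% at 5 µM, with a well cell count of 50 or more; inconclusive = wells under 50 cells across six images, flagged as toxic; inactive = the rest.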
# Experiment: modulators of beta-catenin nuclear translocation, primary screen, imaging, HeLa cells, immunofluorescence, high-content (AID 1665);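 note: per-cell ratio of nuclear to cytoplasmic median beta-catenin stain intensity; plate controls were DMSO negative control for no effect and GSK-3 inhibitor IX positive control for full effect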
# Settings: at 5 µM, stronger effect = higher value
row,Compound,nuclear translocation activity
1,COc1ccc(NP(C)(=O)Oc2ccccc2OC)cc1 (centres undefined),inactive: 0.7%
2,C[C@H]1OP(=O)(Oc2ccccc2)[C@H](O)[C@H](O)[C@H]1N=[N+]=[N-] (some centres undefined),inactive: -1.1%
3,O=P(Nc1nc2ccccc2s1)(c1ccccc1)c1ccccc1,inactive: -1.6%
4,CN(C)CCOC(=O)C(O)(c1ccccc1)C1CCCCC1 (centres undefined),inactive: -0.3%
5,O=P(Nc1ccccn1)(c1ccc(Br)cc1)c1ccc(Br)cc1,inactive: 0.8%
6,COc1ccc(OP(C)(=O)Nc2cccc(Br)c2)cc1 (centres undefined),inactive: 1.8%
7,CP(=O)(Nc1ccc(SC(F)(F)F)cc1)Oc1ccccc1 (centres undefined),inactive: -4%
8,Nc1cccc([As](=O)(O)c2ccccc2)c1,inactive: 1.1%
9,CCCOc1ccc(NP(C)(=O)Oc2ccc(Cl)cc2)cc1 (centres undefined),inactive: -0.2%
10,O=P1(Nc2ccc(Br)cn2)COc2ccccc2OC1,inactive: 0.7%
11,O=[As](O)(c1cccs1)c1cccs1,inactive: -0.8%
12,Cc1ccc(OCC(=O)OC2CN3CCC2CC3)cc1 (centres undefined),inactive: -1.1%
13,O=P1(Nc2ncccn2)COc2ccccc2OC1,inactive: -7.5%
14,CN1CCCCC1COC(=O)C1(O)c2ccccc2CCc2ccccc21 (centres undefined),inactive: -0.6%
15,COc1ccccc1OP(C)(=O)Nc1c(C)cccc1C (centres undefined),inactive: 0.9%
16,CCOC(=O)C(CC)C1=NC(C)(C)Cc2ccccc21.O=[N+]([O-])c1cc([N+](=O)[O-])c(O)c([N+](=O)[O-])c1 (centres undefined),inactive: -1.2%
17,O=[N+]([O-])c1cc([N+](=O)[O-])c(Nc2nnnn2CCO)c([N+](=O)[O-])c1,inactive: 0.4%
18,CN(C)C1(CNC(=O)c2ccc(S(C)(=O)=O)cc2)CCCCC1,inactive: -1.3%
19,O=C(/C=C/c1ccccc1)OC1CN2CCC1CC2 (centres undefined),inactive: -1%
20,CC1CCC(C(C)C)C(OP(=O)(Nc2ccccn2)c2ccccc2)C1 (centres undefined),inactive: 2.8%
21,COc1cc(C2NCCC3(OCCO3)C2(C)C)cc(OC)c1OC.O=[N+]([O-])c1cc([N+](=O)[O-])c(O)c([N+](=O)[O-])c1 (centres undefined),inactive: -0.6%
22,CN(C(=O)Cc1ccc(Cl)c(Cl)c1)[C@@H]1CCCC[C@H]1N1CCCC1,inactive: -2.2%

row,Compound,nuclear translocation activity
1,CC(C)/C=N\N=C(\N)N[N+](=O)[O-],inactive: 0.3%
2,Cc1nc2ccc3ccccc3c2s1.O=[N+]([O-])c1cc([N+](=O)[O-])c(O)c([N+](=O)[O-])c1,inactive: -2%
3,O=[As](O)(c1ccccc1Br)c1ccccc1Br,inactive: -2.1%
4,CC(C)(C)C(=O)NC(Sc1ncccn1)C(Cl)(Cl)Cl (centres undefined),inactive: -2.1%
5,Clc1n[nH]nc1-c1nn[nH][15n]1,inactive: 0.9%
6,O=[N+]([O-])c1cc([N+](=O)[O-])c(-n2nnc3ccccc32)c([N+](=O)[O-])c1,inactive: 4.3%
7,O=P1(Nc2ccccn2)COc2ccccc2OC1,inactive: -6.5%
8,CCOP(=O)(Nc1ccc(C)cn1)OCC,inactive: -1.4%
9,CCOP(=O)(Nc1cccc2ccccc12)OCC,inactive: 0.6%
10,Nc1cccc2c([As](=O)(O)O)cccc12,inactive: -2.9%
11,Cc1ccc(NCCc2c([N+](=O)[O-])cc([N+](=O)[O-])cc2[N+](=O)[O-])cc1,inactive: 0.3%
12,CP(=O)(Nc1cccc(Br)c1)Oc1ccccc1 (centres undefined),inactive: -0.6%
13,CCCOP(=S)(Nc1nc(N)cc(=O)[nH]1)OCCC,inactive: -1.5%
14,Cc1ccc(C)c(NP(C)(=O)Oc2ccccc2)c1 (centres undefined),inactive: -0.3%
15,O=[As](O)(c1cccc(O)c1)c1cccc(O)c1,inactive: 0%
16,Cc1cccc(OCC(=O)OC2CN3CCC2CC3)c1 (centres undefined),inactive: -2.1%
17,CCOC(=O)c1ccc(NP(C)(=O)Oc2cc(C)cc(C)c2)cc1 (centres undefined),inactive: 1.7%
18,O=C(OC1CN2CCC1CC2)c1ccc(Cl)cc1 (centres undefined),inactive: 0.4%
19,COc1ccccc1OP(C)(=O)Nc1cccc(Br)c1 (centres undefined),inactive: 1.3%
20,COc1cc(C(=O)NCC2(N3CCOCC3)CCCCC2)cc(Cl)c1OC(C)C,inactive: -0.9%
21,O=[As](O)(O)c1cccnc1,inactive: -1.4%
22,CN(C(=O)Cc1ccccc1)[C@@H]1CC[C@]2(CCCO2)C[C@H]1N1CCCC1,inactive: -2.4%

row,Compound,nuclear translocation activity
1,CCOP1(=S)c2c(C)nn(CCC#N)c2N=C(c2ccc(F)cc2)N1C (centres undefined),inactive: 1.1%
2,CC1=NCCc2c1[nH]c1ccccc21.O=[N+]([O-])c1cc([N+](=O)[O-])c(O)c([N+](=O)[O-])c1,inactive: 1.4%
3,O=[N+]([O-])c1ccc2c(c1)nnn2O,inactive: -5.3%
4,NC(=O)Nc1ccc([As](=O)(O)O)cc1,inactive: 0.9%
5,O=C(O)COc1ccc([As](=O)(O)O)cc1[N+](=O)[O-],inactive: 0.2%
6,Nc1ccccc1[As](=O)(O)c1ccccc1,inactive: 0.4%
7,O=P(Nc1nccs1)(c1ccccc1)c1nc2ccccc2s1 (centres undefined),inactive: -0.6%
8,O=P(Nc1nccs1)(Oc1ccccc1)Oc1ccccc1,inactive: 1.2%
9,O=C(O)c1cccc(Nc2c([N+](=O)[O-])cc([N+](=O)[O-])cc2[N+](=O)[O-])c1,inactive: -0.6%
10,CS(=O)(=O)c1cc([N+](=O)[O-])c2no[n+]([O-])c2c1,inactive: 0.2%
11,O=[N+]([O-])c1cc([N+](=O)[O-])c(-c2ccn[nH]2)s1,inactive: 6.2%
12,CCN(CC)C(=S)SC(NC=O)C(Cl)(Cl)Cl (centres undefined),inactive: -2.3%
13,CC(C)NC(=O)NP(=O)(Oc1ccccc1)Oc1ccccc1,inactive: -2.4%
14,COc1ccccc1OP(C)(=O)Nc1cc(Cl)ccc1C (centres undefined),inactive: 0.9%
15,Cc1cc(C)cc(OP(C)(N)=O)c1 (centres undefined),inactive: 0.2%
16,ClCCSc1nnc(-c2cccnc2)o1,inactive: 6.8%
17,CCOC(=O)c1ccc(NP(C)(=O)Oc2ccccc2)cc1 (centres undefined),inactive: -4.1%
18,CC(C)c1ccc(OP(=O)(Nc2ccccn2)Oc2ccccc2F)cc1 (centres undefined),inactive: 0.5%
19,Cc1ccc(NP(C)(=O)Oc2ccccc2)c(C)c1 (centres undefined),inactive: -8.5%
20,Cc1cccc(C)c1OP(C)(N)=O (centres undefined),inactive: 0.2%
